For series [1], the target named is T1, CHC^ankle (clathrin heavy chain aa 358–574) (Homo sapiens, UniProt Q00610).
T1 construct: we used the minimal ankle region of CHC (CHC^ankle, aa 358–574); GST (TEV-cleavable); made in house
T1 sequence (Q00610 358-574): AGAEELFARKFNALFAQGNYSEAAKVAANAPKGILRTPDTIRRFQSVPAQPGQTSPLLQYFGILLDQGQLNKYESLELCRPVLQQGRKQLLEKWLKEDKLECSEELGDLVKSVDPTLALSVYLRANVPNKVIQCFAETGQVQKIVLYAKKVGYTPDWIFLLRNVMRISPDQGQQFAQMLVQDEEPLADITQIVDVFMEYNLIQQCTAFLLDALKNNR
Briefly: Fluorescence polarisation direct binding assay, CHC ankle WT. Conditions: direct binding FP, FAM labelled peptides; CHC WT (385–574); mean of three experiments ± SD; read-out: KD, stapled and control peptides, CHC WT. The method, then:
(§1) Binding affinity of CHC and TACC3 peptides was calculated based on fluorescence polarization assays performed as reported previously, using linear and stapled FAM-TACC3 peptides corresponding to aa 549–570 of human TACC3 protein. Linear peptides were purchased from PPR (Fareham, UK); Alta Bioscience (Redditch, UK); Biomatik Corporation (Ontario, Canada). Stock solutions of peptides were 10 mM in DMSO. Binding assays were performed in triplicate in the binding buffer 20 mM HEPES pH 7.5, 150 mM NaCl, 5 mM DTT, 0.05% Tween-20. Data analysis was performed using a one-site specific binding model in Prism (GraphPad software, v10.1.0).

The target of the next series is T2, K507A-CHC^ankle (Homo sapiens, UniProt Q00610, K507A).
T2 construct: we used the minimal ankle region of CHC (CHC^ankle, aa 358–574); GST (TEV-cleavable); made in house
T2 sequence (Q00610 358-574 K507A): T1 sequence (Q00610 358-574) with K150A
Description: Fluorescence polarisation direct binding assay, K507A-CHC ankle. The settings on record: for Kd: direct binding FP, FAM labelled peptides, CHC with K507A substitution, mean of three experiments ± SD, read-out: KD, stapled and control peptides, CHC K507A.
Text: CHC constructs for binding studies were produced during previous work by cloning the respective CHC coding sequence of Q00610 (CLH1_HUMAN) aa 1–574 and 358–574, respectively) into a modified pGEX vector containing a TEV-cleavable GST tag[26]. Point mutations K506A and K507A were introduced by site-directed mutagenesis. GB1-TACC3 is the small protein GB1[47] fused to a short, disordered peptide sequence from human TACC3 (Q9Y6A5, aa 545–573). This hybrid sequence was cloned into a pETM6T1 vector which contains a TEV protease-cleavable N-terminal His-NusA tag.
as §1
For orientation: Polarisation of emitted light reports the rotation of a fluorescent probe.

For series [2], the target named is T3, biotinylated Avi-tagged ankle region of clathrin (aa 358–574) (Homo sapiens, UniProt Q00610).
T3 construct: The biotinylated Avi-tagged ankle region of clathrin (aa 358–574) was immobilised; made in house
T3 sequence (Q00610 358-574 limits assumed): T1 sequence (Q00610 358-574)
Description: SPR binding kinetics. The settings on record: Biacore 1K+, CHC aa 358–574 on SA chip; 60 s injection; average ± SD of duplicates; read-out: ka (SPR). The method, then:
The SPR assays were performed using a Biacore 1K+ instrument (Cytiva Life Sciences). The biotinylated Avi-tagged ankle region of clathrin (aa 358–574) was immobilised on the surface of a Streptavidin SA chip (Cytiva Life Sciences) to the density of 150 RU. The increasing concentrations of peptide analytes were diluted in the running buffer (20 mM HEPES pH 7.5, 150 mM NaCl, 5 mM DTT, 0.05% Tween-20) and injected at a flow rate of 30 μL/min). […] Each concentration was injected at 30 μL/min for 60 s. […] The Biacore evaluation software was used to calculate equilibrium KD values as well as ka and kd constants using 1:1 steady-state affinity model implemented into the BIAevaluation 3.0 software.
Background: In SPR one partner is held on a chip, and binding of the other changes the refractive index at the surface.

In a further series the test system is HeLa cells. Briefly: Cellular peptide uptake by flow cytometry, HeLa. In kind it is in vitro ADME. Conditions: live HeLa, FAM-peptides 1, 2.5, 5, 10 μM for 60 min or 5 μM for 15–360 min, complete medium 10% FBS, 0.2% DMSO, washed and trypsinised, % positive cells and MFI at 525 nm, at least three biological replicates. The method, then: For peptide uptake measurements the medium was aspirated and cells were treated with fresh pre-warmed complete growth medium supplemented for 60 min with FAM-peptides at concentrations of 1, 2.5, 5 and 10 μM; the final concentration of DMSO was 0.2%. To perform the time course of peptide uptake, cells were treated with fresh growth medium supplemented with 5 μM peptide for 15–360 min. After the incubation, cells were washed three times in ice cold phosphate-buffered saline (PBS) and trypsinised for 5 min to remove surface bound peptides and dissociate cells from the surface. The dissociation reaction was stopped using PBS containing 5% FBS. Cells were harvested by centrifugation (5 min, 150 g) and washed an additional three times in PBS. Cells were then resuspended in 300 μL PBS and subjected to a Cytoflex S cytometer (Beckman Coulter) measurement. Using forward and side scattered light, a gate for intact, non-aggregated cells was defined. The fluorescence at 525 nm of 10,000 events was collected within this cell gate and data were analysed using Cytoflex software (version 10.1). Results are shown as geometric means of fluorescence collected at 525 nm.
(A flow cytometer gives signals particle by particle.)

Numbering of substitutions follows the chain as printed.

One may read the Kd as the concentration at which binding is half-saturated. `CC(C)C[C@H](NC(=O)[C@H](C)NC(=O)[C@H](CCC(N)=O)NC(=O)[C@H](CCCCN)NC(=O)[C@H](CCCNC(=N)N)NC(=O)[C@H](C)NC(=O)[C@H](C)NC(=O)[C@H](CO)NC(=O)[C@H](CCC(=O)O)NC(=O)[C@H](CCCCN)NC(=O)[C@H](Cc1ccccc1)NC(=O)c1ccc2c(c1)C1(OC2=O)c2ccc(O)cc2Oc2cc(O)ccc21)C(=O)N[C@@H](Cc1ccc(O)cc1)C(=O)N[C@@H](CC(C)C)C(=O)N[C@@H](CCCCN)C(=O)N[C@@H](Cc1ccccc1)C(=O)N[C@@H](CC(=O)O)C(=O)N1CCC[C@H]1C(=O)N[C@@H](CC(C)C)C(=O)N[C@@H](CC(C)C)C(=O)N[C@@H](CCCNC(=N)N)C(=O)N[C@@H](CC(=O)O)C(=O)N[C@@H](CO)C(N)=O` [P2]: the Kd stood at 160 ± 3 µM in series [1] and 19 ± 5 µM at K507A-CHC^ankle.
With `CC(C)C[C@H](NC(=O)[C@H](C)NC(=O)[C@H](CO)NC(=O)[C@H](CCC(=O)O)NC(=O)[C@H](CCCCN)NC(=O)[C@H](Cc1ccccc1)NC(=O)c1ccc2c(c1)C1(OC2=O)c2ccc(O)cc2Oc2cc(O)ccc21)C(=O)N[C@@H](CCCNC(=N)N)C(=O)N[C@@H](CCCCN)C(=O)N[C@@H](CCC(N)=O)C(=O)N[C@@H](COP(=O)(O)O)C(=O)N[C@@H](CC(C)C)C(=O)N[C@@H](Cc1ccc(O)cc1)C(=O)N[C@@H](CC(C)C)C(=O)N[C@@H](CCCCN)C(=O)N[C@@H](Cc1ccccc1)C(=O)N[C@@H](CC(=O)O)C(=O)N1CCC[C@H]1C(=O)N[C@@H](CC(C)C)C(=O)N[C@@H](CC(C)C)C(=O)N[C@@H](CCCNC(=N)N)C(=O)N[C@@H](CC(=O)O)C(=O)N[C@@H](CO)C(N)=O` [WT pTACC3, reference compound], the kon in series [2] amounted to 85000 M⁻¹ s⁻¹.
Turning to `CC(C)C[C@H](NC(=O)[C@H](C)NC(=O)[C@H](CO)NC(=O)[C@H](CCC(=O)O)NC(=O)[C@H](CCCCN)NC(=O)[C@H](Cc1ccccc1)NC(=O)c1ccc2c(c1)C1(OC2=O)c2ccc(O)cc2Oc2cc(O)ccc21)C(=O)N[C@@H](CCCNC(=N)N)C(=O)N[C@@H](CCCCN)C(=O)N[C@@H](CCC(N)=O)C(=O)N[C@@H](CO)C(=O)N[C@@H](CC(C)C)C(=O)N[C@@H](Cc1ccc(O)cc1)C(=O)N[C@@H](CC(C)C)C(=O)N[C@@H](CCCCN)C(=O)N[C@@H](Cc1ccccc1)C(=O)N[C@@H](CC(=O)O)C(=O)N1CCC[C@H]1C(=O)N[C@@H](CC(C)C)C(=O)N[C@@H](CC(C)C)C(=O)N[C@@H](CCCNC(=N)N)C(=O)N[C@@H](CC(=O)O)C(=O)N[C@@H](CO)C(N)=O` [TACC3 CID, reference compound], the “cellular uptake / cell penetration” value in the series on HeLa cells is “low and slow cellular uptake”. On K507A-CHC^ankle (FP, K507A-CHC ankle versus WT CHC ankle), the “fold enhancement of affinity for K507A-CHC ankle over WT CHC ankle” value is around 10 fold.
In the case of `CC(C)C[C@H](NC(=O)[C@H](C)NC(=O)[C@H](CCC(N)=O)NC(=O)[C@H](CCCCN)NC(=O)[C@H](CCCNC(=N)N)NC(=O)[C@H](CC(C)C)NC(=O)[C@H](C)NC(=O)[C@H](CO)NC(=O)[C@H](CCC(=O)O)NC(=O)[C@H](CCCCN)NC(=O)[C@H](Cc1ccccc1)NC(=O)c1ccc2c(c1)C1(OC2=O)c2ccc(O)cc2Oc2cc(O)ccc21)C(=O)N[C@@H](Cc1ccc(O)cc1)C(=O)N[C@@H](CC(C)C)C(=O)N[C@@H](C)C(=O)N[C@@H](Cc1ccccc1)C(=O)N[C@@H](CC(=O)O)C(=O)N1CCC[C@H]1C(=O)N[C@@H](CC(C)C)C(=O)N[C@@H](CC(C)C)C(=O)N[C@@H](CCCNC(=N)N)C(=O)N[C@@H](CC(=O)O)C(=O)N[C@@H](CO)C(N)=O` [P1], the dissociation constant (Kd) in series [1] was determined as 105 ± 5 µM; at K507A-CHC^ankle, 37 ± 7 µM.
